From patent US10450355B2, “Lectins and uses thereof” (THE REGENTS OF THE UNIVERSITY OF MICHIGAN, priority 2014, dated 2019) come the findings set out here.

Sequences of proteins named here, by UniProt entry; tags and fusion partners are left off. Residues count along the entry.
UniProt O22321, 1-141: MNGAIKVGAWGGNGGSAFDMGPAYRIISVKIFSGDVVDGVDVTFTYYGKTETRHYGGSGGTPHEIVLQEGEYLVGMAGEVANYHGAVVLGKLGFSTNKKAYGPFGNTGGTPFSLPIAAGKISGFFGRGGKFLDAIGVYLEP
UniProt O22321, 1-141 H84T: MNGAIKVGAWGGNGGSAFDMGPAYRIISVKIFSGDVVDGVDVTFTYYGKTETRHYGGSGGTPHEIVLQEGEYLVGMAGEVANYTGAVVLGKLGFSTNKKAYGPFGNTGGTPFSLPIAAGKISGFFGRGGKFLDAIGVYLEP

Structures are written as SMILES.

Experiment [1] deals with BanLec, recombinant wild type (rBanLec, codon-optimized cDNA from gi71042661, C-terminal 6×His tag) (Musa acuminata, UniProt O22321). The experiment can be described thus: Glycocluster inhibition of lectin binding to surface-immobilized mannose neoglycoprotein. More on the design: species or system banana. To be noted: read-out: IC50 of WT; 0.5 μg neoglycoprotein coating, 0.5 μg/ml labeled WT lectin; concentrations normalized to mannose (cpds 1-8) and maltose (cpds 9-11).

The target in experiment [2] is BanLec variant H84T (recombinant, 6×His tag) (Musa acuminata, UniProt O22321, H84T). To be noted: read-out: IC50 of H84T; 0.5 μg neoglycoprotein coating, 1 μg/ml labeled mutant lectin; concentrations normalized to mannose (cpds 1-8) and maltose (cpds 9-11).
Experiment [3] has as its system BanLec variant H84T (recombinant, 6×His tag). To be noted: IC50 of WT compared with IC50 of H84T.

Turning to `O=C(N[C@@H]1O[C@H](CO[C@H]2O[C@H](CO)[C@@H](O)[C@H](O)[C@@H]2O)[C@@H](O)[C@H](O)[C@H]1O)c1ccc(C(=O)N[C@@H]2O[C@H](CO[C@H]3O[C@H](CO)[C@@H](O)[C@H](O)[C@@H]3O)[C@@H](O)[C@H](O)[C@H]2O)cc1`, the IC50 was 600 µM in experiment [1] and 100 µM in experiment [2]. In addition, in experiment [3], the Fold Change (IC50, WT vs H84T) was 6.

The IC50 is the point on the concentration scale where inhibition reaches its midpoint.
